Results from patent US20110118127A1, “MARKER GENES FOR SCREENING OF DRUG-INDUCED TOXICITY IN HUMAN CELLS AND SCREENING METHOD USING THE SAME” (priority 2009, published 2011).

System: HK-2
Experiment: Cytotoxicity test (MTT assay) in HK-2
Details: HK-2 2.3 × 10^4 cells/well, 24 h

Substance | Cytotoxicity IC30 Conc. (survival inhibited 30%) | Cytotoxicity IC30 Conc. (Table 11)
Amphotericine | 4.23 µg/mL | 
Neomycin |  | 14700 µg/mL
